In PubChem BioAssay AID588795 (National Center for Advancing Translational Sciences (NCATS), 2011) one finds activity change, negative = inhibition data, which are given here for 30 compounds.

The chains behind the UniProt entries cited, without tags or fusion partners.
UniProt P39748, whole entry: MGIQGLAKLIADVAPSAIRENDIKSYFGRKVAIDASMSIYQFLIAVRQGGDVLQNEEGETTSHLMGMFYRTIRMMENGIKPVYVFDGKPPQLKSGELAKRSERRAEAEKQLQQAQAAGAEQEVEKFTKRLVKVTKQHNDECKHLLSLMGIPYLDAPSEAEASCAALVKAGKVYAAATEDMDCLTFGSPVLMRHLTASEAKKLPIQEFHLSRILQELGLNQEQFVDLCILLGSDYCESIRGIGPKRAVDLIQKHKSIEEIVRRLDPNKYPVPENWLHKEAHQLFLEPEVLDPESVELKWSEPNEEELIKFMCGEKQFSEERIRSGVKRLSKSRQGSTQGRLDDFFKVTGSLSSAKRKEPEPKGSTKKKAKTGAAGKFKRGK

This is a selection; strong and weak results do not stand in their true shares. Some of these compounds have results that are not shown, active ones among them. Activity calls are given as the source filed them. Calls follow the shape of the dose curve; as a rule, active = well fitted inhibition curve with a large enough effect; inconclusive = small, poorly fitted or top-dose-only effect; inactive = no such curve, though single readings can be large or run the other way.
% is scaled to controls: 0 for no effect and ±100 for the full control effect.

For this experiment, the target named is Flap endonuclease 1 (Homo sapiens) (UniProt P39748). In words: qHTS Assay for the Inhibitors of Human Flap endonuclease 1 (FEN1). Also: nearly all actives have a fitted effect of over 65% in size. The following applies: Recombinant FEN1 flap cleavage, fluorescence, 15 min; at 114 µM (top of the series). (In qHTS, concentration-response curves come from the screen itself.)
`CN(C)C1(CNC(=O)c2ccc(Br)cc2)CCCCC1`: the activity change, negative = inhibition was inactive: -0.568%.

In the case of `O=C(CBr)c1ccc(Cl)cc1`, the activity change, negative = inhibition was inactive: 16.4%.

As for `O=C(NCC1(N2CCCCC2)CCCCC1)c1cccc(Cl)c1`, the activity change, negative = inhibition is inactive: 2.72%.

As to `COc1ccc(C(=O)NCC2(N(C)C)CCCCC2)cc1Cl`, the activity change, negative = inhibition was inactive: -3.09%.

Regarding `COc1ccc(Cl)cc1C(=O)NCC1(N(C)C)CCCCC1`, the activity change, negative = inhibition was inactive: 9.37%.

With `COc1cccc(C(=O)NCC2(N3CCCCC3)CCCCC2)c1`, the activity change, negative = inhibition was inactive: -6.1%.

Take `O=C(OC1CN2CCC1CC2)C(CO)(c1ccccc1)c1ccccc1` (stereo not given): the activity change, negative = inhibition was inactive: -8.49%.

Consider `COc1cccc(C(=O)NCC2(N3CCOCC3)CCCCC2)c1`, for which the activity change, negative = inhibition was inactive: -10%.

`O=C(OCCN1CCCC1)C(O)(c1ccccc1)c1ccccc1`: the activity change, negative = inhibition was inactive: 0.568%.

Turning to `COc1ccc(Br)c(C(=O)NCC2(N3CCCCC3)CCCCC2)c1`, the activity change, negative = inhibition is inactive: -16.3%.

Regarding `Cc1cccc(C(=O)NCC2(N(C)C)CCCCC2)c1`, the activity change, negative = inhibition is inactive: -0.929%.

As for `COc1cc(C(=O)NCC2(N(C)C)CCCCC2)cc(OC)c1OC`, the activity change, negative = inhibition is inactive: 1.83%.

As to `CN1[C@@H]2CC[C@H]1CC(OC(=O)C(O)(c1ccccc1)c1ccccc1)C2` (stereo not given in full), the activity change, negative = inhibition is inactive: 2.44%.

For `O=C(NCC1(N2CCCCC2)CCCCC1)c1cc([N+](=O)[O-])ccc1Cl`, the activity change, negative = inhibition is inactive: -0.849%.

In the case of `CN(C)C1(CNC(=O)c2ccccc2F)CCCCC1`, the activity change, negative = inhibition is inactive: 2.48%.

On to `Cc1ccc(C(=O)NCC2(N3CCCCC3)CCCCC2)cc1`, for which the activity change, negative = inhibition is inactive: -3.35%.

As to `CC(C)N1C(=O)CC2(CCN(CCOC(=O)C(O)(c3ccccc3)c3ccccc3)CC2)C1=O`, the activity change, negative = inhibition was inactive: 1.33%.

With `COc1cc(SC)ccc1C(=O)NCC1(N(C)C)CCCCC1`, the activity change, negative = inhibition was inactive: -8.53%.

Turning to `CN(C)C1(CNC(=O)c2cccc(Cl)c2)CCCCC1`, the activity change, negative = inhibition was inactive: -4.73%.

On to `CCN(CC)CC(C)C(C)OC(=O)C(O)(c1ccccc1)c1ccccc1` (stereo not given), for which the activity change, negative = inhibition is inactive: -0.296%.

`CCCCOc1ccccc1C(=O)NCC1(N(C)C)CCCCC1`: the activity change, negative = inhibition is inactive: -9.06%.

With `CN(C)C1CCCC1OC(=O)C(O)(c1ccccc1)c1ccccc1` (stereo not given), the activity change, negative = inhibition is inactive: 0.864%.

On to `CN(C)c1ccc(C(=O)NCC2(N(C)C)CCCCC2)cc1`, for which the activity change, negative = inhibition is inactive: -5.6%.

As for `CN(C)C1(CNC(=O)c2ccccc2[N+](=O)[O-])CCCCC1`, the activity change, negative = inhibition was inactive: 7.09%.

As for `Cc1ccccc1C(=O)NCC1(N2CCCCC2)CCCCC1`, the activity change, negative = inhibition was inactive: -6.97%.

Regarding `O=C(NCC1(N2CCCCC2)CCCCC1)c1cccc(Br)c1`, the activity change, negative = inhibition was inactive: 1.06%.

Take `CCN1CCCC(OC(=O)C2(O)c3ccccc3C=Cc3ccccc32)C1` (stereo not given): the activity change, negative = inhibition was inactive: -2.86%.

For the compound `CCOc1cccc(C(=O)NCC2(N(C)C)CCCCC2)c1`, the activity change, negative = inhibition is inactive: 22.5%.

Take `COc1ccc(C(=O)NCC2(N(C)C)CCCCC2)cc1`: the activity change, negative = inhibition is inactive: -3.28%.

In the case of `O=C(NCC1(N2CCCCC2)CCCCC1)c1cc(F)c(F)cc1Cl`, the activity change, negative = inhibition was inactive: -3.44%.
